Holding throughout (conditions): oocyte
Series [1] concerns the target T1, Solute carrier family 22 member 6 (Rattus norvegicus, UniProt O35956). Description: TP_TRANSPORTER: inhibition of DNP-NAC uptake (DNP-NAC: 1 uM, Cl-triF-NAC: 1000 uM) in Xenopus laevis oocytes.
In series [2] the target is T1, Solute carrier family 22 member 6. In words: TP_TRANSPORTER: inhibition of PAH uptake (PAH: 20 uM, Cl-triF-NAC: 1000 uM) in Xenopus laevis oocytes.
Series [3] shares this target. Description: TP_TRANSPORTER: inhibition of DNP-NAC uptake (DNP-NAC: 1 uM, diBr,diF-NAC: 1000 uM) in Xenopus laevis oocytes.
Series [4] has the same target. Description: TP_TRANSPORTER: inhibition of DNP-NAC uptake (DNP-NAC: 1 uM, Br,Cl,diF-NAC: 1000 uM) in Xenopus laevis oocytes.

The structures appear in SMILES notation.

With `CC(=O)NC(CSC(F)(F)C(F)Cl)C(=O)O` (centres undefined), the Activity result in series [1] is “inhibitor [(at a rough estimate) 15 % of control]”; in series [2], “inhibitor [(at a rough estimate) 30 % of control]”. For `CC(=O)N[C@@H](CSC(F)(F)C(Br)Br)C(=O)O`, the Activity entry in series [3] was “inhibitor [(at a rough estimate) 0 % of control]”. On to `CC(=O)NC(CSC(F)(F)C(Cl)Br)C(=O)O` (centres undefined), for which the Activity entry in series [4] was “inhibitor [(at a rough estimate) 5 % of control]”.

Source of the values: ChEMBL document CHEMBL2074452, “Mercapturic acids (N-acetylcysteine S-conjugates) as endogenous substrates for the renal organic anion transporter-1” (Mol Pharmacol, 2001).
